# Assays:
# [1] = target: T1, human α1C adrenoceptor (Homo sapiens, UniProt P35348); assay: biochemical; conditions: Table 2; antagonists; versus 3H-prazosin; read-out: pKI (antagonist affinity, 3H-prazosin binding) hα1C (converted)
# T1 sequence (P35348 1-466): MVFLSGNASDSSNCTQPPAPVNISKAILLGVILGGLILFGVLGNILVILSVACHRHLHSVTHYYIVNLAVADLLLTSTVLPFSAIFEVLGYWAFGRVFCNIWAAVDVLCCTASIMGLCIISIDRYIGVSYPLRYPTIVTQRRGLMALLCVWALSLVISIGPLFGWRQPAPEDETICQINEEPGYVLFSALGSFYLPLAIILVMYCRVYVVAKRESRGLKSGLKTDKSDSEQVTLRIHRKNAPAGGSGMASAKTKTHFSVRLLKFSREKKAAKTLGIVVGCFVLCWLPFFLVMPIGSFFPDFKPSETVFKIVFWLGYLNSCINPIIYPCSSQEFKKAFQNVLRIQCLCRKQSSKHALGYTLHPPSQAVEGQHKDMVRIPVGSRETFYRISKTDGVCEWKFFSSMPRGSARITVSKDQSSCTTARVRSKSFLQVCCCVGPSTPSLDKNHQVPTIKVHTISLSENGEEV
# [2] = target: T2, human urethra (α1-adrenoceptor) (Homo sapiens, UniProt P35348); assay: Contractile study in isolated human male urethra; conditions: versus phenylephrine-induced contraction; read-out: pKB Human Urethra Male (converted)
# T2 construct: Tissue samples from the proximal urethra of male humans; from tissue; host or cells: human male proximal urethra strips
# T2 sequence (P35348 1-466): T1 sequence (P35348 1-466)
# [3] = target: T3, dog BN, female (α1-adrenoceptor) (Canis lupus, UniProt A0A8I3NK63); assay: Contractile study in isolated female dog bladder neck
# T3 sequence (A0A8I3NK63 1-466): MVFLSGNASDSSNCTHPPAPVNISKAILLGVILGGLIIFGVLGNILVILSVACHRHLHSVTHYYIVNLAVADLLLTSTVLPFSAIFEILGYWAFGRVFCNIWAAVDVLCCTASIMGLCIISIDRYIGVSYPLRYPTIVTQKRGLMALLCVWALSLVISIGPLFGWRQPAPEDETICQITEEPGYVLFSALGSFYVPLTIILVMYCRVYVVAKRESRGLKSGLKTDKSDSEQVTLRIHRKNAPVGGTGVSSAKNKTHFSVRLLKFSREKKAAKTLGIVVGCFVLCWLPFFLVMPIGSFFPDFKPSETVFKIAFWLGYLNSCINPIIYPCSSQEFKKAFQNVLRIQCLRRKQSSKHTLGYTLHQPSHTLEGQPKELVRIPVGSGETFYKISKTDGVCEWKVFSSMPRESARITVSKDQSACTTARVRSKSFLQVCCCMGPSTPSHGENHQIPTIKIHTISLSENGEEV
# [4] = target: T4, dog BN, male (α1-adrenoceptor) (Canis lupus, UniProt A0A8I3NK63); assay: Contractile study in isolated male dog bladder neck; conditions: versus phenylephrine-induced contraction
# T4 sequence (A0A8I3NK63 1-466): T3 sequence (A0A8I3NK63 1-466)
# [5] = target: T5, female dog urethra (α1-adrenoceptor) (Canis lupus, UniProt A0A8I3NK63); assay: Contractile study in isolated female dog urethra; conditions: agonist SK&F 102652
# T5 sequence (A0A8I3NK63 1-466): T3 sequence (A0A8I3NK63 1-466)
Structure (SMILES),Ki [1] [nM],Kb [2] [nM],"Prazosin pKB Bladder Neck ([3]; female dog bladder neck, agonist SK&F 102652)",pKB Dog BN Female ([3]; versus phenylephrine-induced contraction),pKB Dog BN Male [4],Prazosin pKB Urethra [5]
COc1ccccc1N1CCN(CCN2C(=O)CC3(CCCC3)CC2=O)CC1 [BMY 7378],158,31.6,–,–,–,–
COc1cc2nc(N3CCN(C(=O)c4ccco4)CC3)nc(N)c2cc1OC [Prazosin],–,–,7.8,8.0,8.2,8.5

# From patent US5610174A, “Use of α1A -selective adrenoceptor agonists for the treatment of urinary incontinence” (priority 1995, dated 1997)
